Measurements published in PubChem BioAssay AID1159580 (chemical genetic matrix, 2015).
The list shows a part of the results, in another mix than the full data. Calls of active or inactive are those of the source. Rule as the data show it: active = normalized growth mostly below about 0.91 (no sharp cut-off); inconclusive = no clear call, values can overlap the other calls; inactive = mostly above about 0.92.

Test: chemical genetic growth profiling, strain panel (AID 1159580);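 also: tested at 20 µM; growth read once vehicle control cultures reached saturation at 30 °C; 1 = growth at the plate median or of vehicle wells; lower values mean less growth of the strain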
Details: S. cerevisiae deletion strains, growth OD

Measured: normalized growth

OCCSCCO
inactive: locus YAL021C, strain ccr4, stronger effect = lower value 0.969 | locus YAL026C, strain drs2, stronger effect = lower value 0.982 | locus YAL030W, strain snc1, stronger effect = lower value 1 | locus YBL061C, strain skt5, stronger effect = lower value 1.01 | locus YBR009C, strain hhf1, stronger effect = lower value 0.993 | locus YBR023C, strain chs3, stronger effect = lower value 1.02 | locus YBR171W, strain sec66, stronger effect = lower value 1.01 | locus YBR231C, strain swc5, stronger effect = lower value 0.996 | locus YBR279W, strain paf1, stronger effect = lower value 0.988 | locus YCL011C, strain gbp2, stronger effect = lower value 1.01 | locus YCL016C, strain dcc1, stronger effect = lower value 1.04 | locus YCL061C, strain MRC1, stronger effect = lower value 1.01 | locus YCL069W, strain vba3, stronger effect = lower value 0.984 | locus YCR088W, strain abp1, stronger effect = lower value 0.995 | locus YDL005C, strain med2, stronger effect = lower value 0.98 | locus YDL040C, strain nat1, stronger effect = lower value 0.989 | locus YDR001C, strain nth1, stronger effect = lower value 0.991 | locus YDR069C, strain doa4, stronger effect = lower value 0.968 | locus YDR137W, strain rgp1, stronger effect = lower value 1.01 | locus YDR159W, strain sac3, stronger effect = lower value 0.966 | locus YDR195W, strain ref2 = 0.973 | locus YDR297W, strain sur2, stronger effect = lower value 0.997 | locus YDR334W, strain swr1, stronger effect = lower value 0.995 | locus YDR335W, strain msn5, stronger effect = lower value 1 | locus YDR392W, strain spt3, stronger effect = lower value 0.943 | locus YEL003W, strain gim4, stronger effect = lower value 0.985 | locus YEL037C, strain rad23, stronger effect = lower value 0.988 | locus YEL061C, strain CIN8 (second series), stronger effect = lower value 0.978 | locus YER015W, strain faa2, stronger effect = lower value 1 | locus YER016W, strain bim1, stronger effect = lower value 1 | locus YER111C, strain swi4, stronger effect = lower value 1 | locus YER155C, strain BEM2 (second series), stronger effect = lower value 0.982 | locus YFR010W, strain ubp6, stronger effect = lower value 0.979 | locus YGL167C, strain pmr1, stronger effect = lower value 1.01 | locus YGL173C, strain kem1, stronger effect = lower value 1 | locus YGL227W, strain vid30, stronger effect = lower value 0.991 | locus YGL240W, strain doc1, stronger effect = lower value 0.993 | locus YGL253W, strain hxk2, stronger effect = lower value 0.992 | locus YHR013C, strain ard1, stronger effect = lower value 1.03 | locus YHR027C, strain rpn1, stronger effect = lower value 0.997 | locus YHR030C, strain SLT2, stronger effect = lower value 1.08 | locus YHR079C, strain IRE1, stronger effect = lower value 1.07 | locus YHR142W, strain chs7, stronger effect = lower value 1.01 | locus YJL092W, strain hpr5, stronger effect = lower value 1.01 | locus YJL095W, strain BCK1 (second series), stronger effect = lower value 1.01 | locus YJL095W, strain BCK1, stronger effect = lower value 1.07 | locus YJL115W, strain asf1, stronger effect = lower value 1 | locus YJL129C, strain trk1, stronger effect = lower value 1.05 | locus YJL154C, strain vps35, stronger effect = lower value 0.99 | locus YJL164C, strain tpk1, stronger effect = lower value 0.99 | locus YJL166W, strain qcr8, stronger effect = lower value 1.02 | locus YJL187C, strain SWE1, stronger effect = lower value 0.984 | locus YJR066W, strain TOR1, stronger effect = lower value 0.993 | locus YKL160W, strain elf1, stronger effect = lower value 1.04 | locus YKR026C, strain gcn3, stronger effect = lower value 1 | locus YKR091W, strain srl3, stronger effect = lower value 1.01 | locus YLL001W, strain dnm1, stronger effect = lower value 1.05 | locus YLL026W, stronger effect = lower value 1 | locus YLL041C, strain sdh2, stronger effect = lower value 0.989 | locus YLR027C, strain aat2, stronger effect = lower value 0.998 | locus YLR113W, strain HOG1, stronger effect = lower value 0.982 | locus YLR221C, strain rsa3, stronger effect = lower value 1.06 | locus YLR258W, strain gsy2, stronger effect = lower value 1 | locus YLR262C, strain YPT6 (second series), stronger effect = lower value 0.997 | locus YLR320W, strain mms22, stronger effect = lower value 1.06 | locus YLR342W, strain FKS1, stronger effect = lower value 0.994 | locus YLR357W, strain rsc2, stronger effect = lower value 1.02 | locus YLR370C, strain arc18, stronger effect = lower value 1.02 | locus YLR384C, strain iki3, stronger effect = lower value 1 | locus YML120C, strain ndi1, stronger effect = lower value 1.03 | locus YMR058W, strain fet3, stronger effect = lower value 0.99 | locus YMR125W, strain sto1, stronger effect = lower value 0.999 | locus YMR129W, stronger effect = lower value 0.984 | locus YMR205C, strain PFK2, stronger effect = lower value 1.04 | locus YMR231W, strain pep5, stronger effect = lower value 0.994 | locus YNL071W, strain lat1, stronger effect = lower value 0.985 | locus YNL183C, strain NPR1, stronger effect = lower value 1.02 | locus YNL209W, strain ssb2, stronger effect = lower value 0.997 | locus YNL248C, strain rpa49, stronger effect = lower value 0.96 | locus YNL322C, strain KRE1 (second series), stronger effect = lower value 1.01 | locus YNR049C, strain mso1, stronger effect = lower value 1.01 | locus YOR001W, strain rrp6, stronger effect = lower value 0.954 | locus YOR070C, strain gyp1, stronger effect = lower value 0.999 | locus YOR080W, strain dia2, stronger effect = lower value 1 | locus YOR083W, strain WHI5, stronger effect = lower value 1.05 | locus YOR106W, strain vam3, stronger effect = lower value 1.03 | locus YOR231W, strain MKK1, stronger effect = lower value 1.04 | locus YOR265W, strain rbl2, stronger effect = lower value 1.01 | locus YOR270C, strain vph1, stronger effect = lower value 1.04 | locus YOR290C, strain snf2, stronger effect = lower value 1.01 | locus YPL051W, strain arl3, stronger effect = lower value 1.01 | locus YPL078C, strain atp4, stronger effect = lower value 1.01 | locus YPL106C, strain sse1, stronger effect = lower value 1 | locus YPL240C, strain hsp82, stronger effect = lower value 1.01 | locus YPL256C, strain CLN2, stronger effect = lower value 1.09
